Results published in US7759499B2, “Compounds as inhibitors of hepatitis C virus NS3 serine protease” (Schering Corporation, priority 2004, dated 2010).

Sequences of proteins named here, by UniProt entry; tags and fusion partners are left off. Residues count along the entry.
UniProt P27958, 1027-1657: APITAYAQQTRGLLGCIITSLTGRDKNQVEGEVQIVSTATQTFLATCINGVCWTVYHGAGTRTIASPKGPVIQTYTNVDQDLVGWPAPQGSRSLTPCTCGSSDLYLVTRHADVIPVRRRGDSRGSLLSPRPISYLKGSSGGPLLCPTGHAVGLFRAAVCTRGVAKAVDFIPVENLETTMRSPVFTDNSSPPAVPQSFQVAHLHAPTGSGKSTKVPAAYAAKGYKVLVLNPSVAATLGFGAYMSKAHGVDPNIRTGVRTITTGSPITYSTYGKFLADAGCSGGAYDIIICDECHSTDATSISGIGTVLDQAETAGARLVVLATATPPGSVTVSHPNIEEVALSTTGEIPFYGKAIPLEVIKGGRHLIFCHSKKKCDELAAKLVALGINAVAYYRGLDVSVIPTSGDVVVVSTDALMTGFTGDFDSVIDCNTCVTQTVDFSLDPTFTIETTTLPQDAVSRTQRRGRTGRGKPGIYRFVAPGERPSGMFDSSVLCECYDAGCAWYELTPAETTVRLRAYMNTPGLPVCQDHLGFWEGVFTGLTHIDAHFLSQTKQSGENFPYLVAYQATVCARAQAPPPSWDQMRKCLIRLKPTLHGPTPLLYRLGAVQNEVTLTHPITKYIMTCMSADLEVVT
UniProt P27958, 1658-1711: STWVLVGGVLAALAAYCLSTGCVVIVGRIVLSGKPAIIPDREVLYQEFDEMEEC

What follows are compounds tested against Recombinant heterodimeric HCV NS3/NS4A protease (strain 1a) (Hepatitis C virus genotype 1a, UniProt P27958) (assay: Spectrophotometric assay for HCV protease inhibitory activity). Settings: Table 2, range.
Assay type: biochemical
With `C=CCNC(=O)C(=O)C(CCC(F)(F)F)NC(=O)[C@@H]1[C@@H]2[C@H](CN1C(=O)[C@@H](NC(=O)NC1(CN(C)S(C)(=O)=O)CCCCC1)C(C)(C)C)C2(C)C` (some centres unmarked) [Compound 11059] the Ki was no more than 75 nM.
Compound `C=CCNC(=O)C(=O)C(CCCC)NC(=O)[C@@H]1[C@@H]2[C@H](CN1C(=O)[C@@H](NC(=O)NC1(CN(C)S(C)(=O)=O)CCCCC1)C(C)(C)C)C2(C)C` (some centres unmarked) [Compound 11060] has a Ki of no more than 75 nM.
`C=CCNC(=O)C(=O)C(CCC)NC(=O)[C@@H]1[C@@H]2[C@H](CN1C(=O)[C@@H](NC(=O)NC1(CN(C)S(C)(=O)=O)CCCCC1)C(C)(C)C)C2(C)C` (some centres unmarked) [Compound 11061] gave a Ki of no more than 75 nM.
`C=CCNC(=O)C(=O)C(CCCC)NC(=O)[C@@H]1[C@@H]2[C@H](CN1C(=O)[C@@H](NC(=O)N[C@H](CN(C)S(C)(=O)=O)C(C)(C)C)C(C)(C)C)C2(C)C` (some centres unmarked) [Compound 11062] gave a Ki of no more than 75 nM.
Work on `C=CCNC(=O)C(=O)C(CCC)NC(=O)[C@@H]1[C@@H]2[C@H](CN1C(=O)[C@@H](NC(=O)N[C@H](CN(C)S(=O)(=O)c1ccccc1)[C@@H](C)CC)C(C)(C)C)C2(C)C` (some centres unmarked) [Compound 11063] yielded a Ki of no more than 75 nM.
In the case of `CC[C@H](C)[C@@H](CN(C)S(=O)(=O)c1ccccc1)NC(=O)N[C@H](C(=O)N1C[C@H]2[C@@H]([C@H]1C(=O)NC(CC1CC1)C(=O)C(N)=O)C2(C)C)C(C)(C)C` (some centres unmarked) [Compound 11064], the Ki is reported as no more than 75 nM.
Compound `C=CCNC(=O)C(=O)C(CCC(F)(F)F)NC(=O)[C@@H]1[C@@H]2[C@H](CN1C(=O)[C@@H](NC(=O)NC1(CN(C)S(C)(=O)=O)CCCCC1)C1CCCCC1)C2(C)C` (some centres unmarked) [Compound 11065] has a Ki of no more than 75 nM.
`C=CCNC(=O)C(=O)C(CCCC)NC(=O)[C@@H]1[C@@H]2[C@H](CN1C(=O)[C@@H](NC(=O)NC1(CN(C)S(C)(=O)=O)CCCCC1)C1CCCCC1)C2(C)C` (some centres unmarked) [Compound 11066] gave a Ki of no more than 75 nM.
Compound `C=CCNC(=O)C(=O)C(CCC)NC(=O)[C@@H]1[C@@H]2[C@H](CN1C(=O)[C@@H](NC(=O)NC1(CN(C)S(C)(=O)=O)CCCCC1)C1CCCCC1)C2(C)C` (some centres unmarked) [Compound 11067] has a Ki of no more than 75 nM.
Work on `C=CCNC(=O)C(=O)C(CC=C)NC(=O)[C@@H]1[C@@H]2[C@H](CN1C(=O)[C@@H](NC(=O)NC1(CN(C)S(C)(=O)=O)CCCCC1)C1CCCCC1)C2(C)C` (some centres unmarked) [Compound 11068] yielded a Ki of no more than 75 nM.
In the case of `C=CCNC(=O)C(=O)C(CC=C)NC(=O)[C@@H]1[C@@H]2[C@H](CN1C(=O)[C@@H](NC(=O)NC1(CN(C)S(C)(=O)=O)CCCCC1)C(C)(C)C)C2(C)C` (some centres unmarked) [Compound 11069], the Ki is reported as no more than 75 nM.
Compound `C=CCNC(=O)C(=O)C(CC1CC1)NC(=O)[C@@H]1[C@@H]2[C@H](CN1C(=O)[C@@H](NC(=O)NC1(CN(C)S(C)(=O)=O)CCCCC1)C1CCCCC1)C2(C)C` (some centres unmarked) [Compound 11070] has a Ki of no more than 75 nM.
`CC[C@H](C)[C@@H](CN(C)S(=O)(=O)c1ccccc1)NC(=O)N[C@H](C(=O)N1C[C@H]2[C@@H]([C@H]1C(=O)NC(CC1CCC1)C(=O)C(N)=O)C2(C)C)C(C)(C)C` (some centres unmarked) [Compound 11071] gave a Ki of no more than 75 nM.
Work on `C=CCNC(=O)C(=O)C(CCC)NC(=O)[C@@H]1[C@@H]2[C@H](CN1C(=O)[C@@H](NC(=O)N[C@H](CN(C)S(=O)(=O)c1cccs1)C(C)(C)C)C(C)(C)C)C2(C)C` (some centres unmarked) [Compound 11072] yielded a Ki of no more than 75 nM.
`C=CCNC(=O)C(=O)C(CCC)NC(=O)[C@@H]1[C@@H]2[C@H](CN1C(=O)[C@@H](NC(=O)N[C@H](CN(C)S(=O)(=O)C1CC1)C(C)(C)C)C(C)(C)C)C2(C)C` (some centres unmarked) [Compound 11073] gave a Ki of no more than 75 nM.
In the case of `C=CCNC(=O)C(=O)C(CCC)NC(=O)[C@@H]1[C@@H]2[C@H](CN1C(=O)[C@@H](NC(=O)N[C@H](CN(C)S(=O)(=O)c1ccccc1)C(C)(C)C)C(C)(C)C)C2(C)C` (some centres unmarked) [Compound 11074], the Ki is reported as no more than 75 nM.
For `C=CCNC(=O)C(=O)C(CC1CCC1)NC(=O)[C@@H]1[C@@H]2[C@H](CN1C(=O)[C@@H](NC(=O)N[C@H](CN(C)S(=O)(=O)c1ccccc1)C(C)C)C1CCCCC1)C2(C)C` (some centres unmarked) [Compound 11075], the Ki was no more than 75 nM.
Compound `C=CCNC(=O)C(=O)C(CCC)NC(=O)[C@@H]1[C@@H]2[C@H](CN1C(=O)[C@@H](NC(=O)N[C@H](CN(C)S(=O)(=O)c1cccs1)C(C)(C)C)C1CCCCC1)C2(C)C` (some centres unmarked) [Compound 11076] has a Ki of no more than 75 nM.
Work on `C=CCNC(=O)C(=O)C(CCC)NC(=O)[C@@H]1[C@@H]2[C@H](CN1C(=O)[C@@H](NC(=O)N[C@H](CN(C)S(=O)(=O)c1ccccc1)C(C)(C)C)C1CCCCC1)C2(C)C` (some centres unmarked) [Compound 11077] yielded a Ki of no more than 75 nM.
With `C=CCNC(=O)C(=O)C(CCCC)NC(=O)[C@@H]1[C@@H]2[C@H](CN1C(=O)[C@@H](NC(=O)N[C@H](CN(C)S(C)(=O)=O)C(C)(C)C)C1CCCCC1)C2(C)C` (some centres unmarked) [Compound 11078] the Ki was no more than 75 nM.
Work on `C=CCNC(=O)C(=O)C(CC1CCC1)NC(=O)[C@@H]1[C@@H]2[C@H](CN1C(=O)[C@@H](NC(=O)N[C@H](CN(C)S(C)(=O)=O)C(C)(C)C)C1CCCCC1)C2(C)C` (some centres unmarked) [Compound 11079] yielded a Ki of no more than 75 nM.
`C=CCNC(=O)C(=O)C(CC=C)NC(=O)[C@@H]1[C@@H]2[C@H](CN1C(=O)[C@@H](NC(=O)N[C@H](CN(C)S(C)(=O)=O)C(C)(C)C)C1CCCCC1)C2(C)C` (some centres unmarked) [Compound 11080] showed a Ki of no more than 75 nM.
With `C=CCNC(=O)C(=O)C(CCC)NC(=O)[C@@H]1[C@@H]2[C@H](CN1C(=O)[C@@H](NC(=O)N[C@H](CN(C)S(C)(=O)=O)C(C)(C)C)C1CCCCC1)C2(C)C` (some centres unmarked) [Compound 11081] the Ki was no more than 75 nM.
Work on `CC[C@H](C)[C@@H](CN(C)S(=O)(=O)c1cccs1)NC(=O)N[C@H](C(=O)N1C[C@H]2[C@@H]([C@H]1C(=O)NC(CC1CCC1)C(=O)C(N)=O)C2(C)C)C(C)(C)C` (some centres unmarked) [Compound 11082] yielded a Ki of no more than 75 nM.
`C=CCNC(=O)C(=O)C(CCC)NC(=O)[C@@H]1[C@@H]2[C@H](CN1C(=O)[C@@H](NC(=O)N[C@H](CN(C)S(=O)(=O)c1cccs1)[C@@H](C)CC)C(C)(C)C)C2(C)C` (some centres unmarked) [Compound 11083] was tested, and the Ki was no more than 75 nM.
`CCCNC(=O)C(=O)C(CCC)NC(=O)[C@@H]1[C@@H]2[C@H](CN1C(=O)[C@@H](NC(=O)N[C@H](CN(C)S(=O)(=O)c1cccs1)[C@@H](C)CC)C(C)(C)C)C2(C)C` (some centres unmarked) [Compound 11084] showed a Ki greater than 250 nM.
`C=CCNC(=O)C(=O)C(CCCC)NC(=O)[C@@H]1[C@@H]2[C@H](CN1C(=O)[C@@H](NC(=O)N[C@H](CN(C)S(=O)(=O)c1cccs1)C(C)(C)C)C(C)(C)C)C2(C)C` (some centres unmarked) [Compound 11085] gave a Ki of no more than 75 nM.
`C=CCNC(=O)C(=O)C(CCCC)NC(=O)[C@@H]1[C@@H]2[C@H](CN1C(=O)[C@@H](NC(=O)N[C@H](CN(C)S(=O)(=O)c1cccs1)CC(C)(C)C)C(C)(C)C)C2(C)C` (some centres unmarked) [Compound 11086] showed a Ki of 75 to 250 nM.
`CCCC(NC(=O)[C@@H]1[C@@H]2[C@H](CN1C(=O)[C@@H](NC(=O)N[C@H](CN(C)S(=O)(=O)c1cccs1)[C@@H](C)CC)C(C)(C)C)C2(C)C)C(=O)C(=O)NCC` (some centres unmarked) [Compound 11087] showed a Ki of 75 to 250 nM.
In the case of `C=CCNC(=O)C(=O)C(CCC)NC(=O)[C@@H]1[C@@H]2[C@H](CN1C(=O)[C@@H](NC(=O)N[C@H](CN(C)S(C)(=O)=O)C(C)(C)C)C(C)(C)C)C2(C)C` (some centres unmarked) [Compound 11088], the Ki is reported as no more than 75 nM.
Work on `C=CCNC(=O)C(=O)C(CCC)NC(=O)[C@@H]1[C@@H]2[C@H](CN1C(=O)[C@@H](NC(=O)N[C@H](CN(C)S(=O)(=O)C1CC1)C(C)(C)C)C1CCCCC1)C2(C)C` (some centres unmarked) [Compound 11089] yielded a Ki of no more than 75 nM.
In the case of `C=CCNC(=O)C(=O)C(CCCC)NC(=O)[C@@H]1[C@@H]2[C@H](CN1C(=O)[C@@H](NC(=O)N[C@H](CN(C)S(=O)(=O)C(F)(F)F)C(C)(C)C)C(C)(C)C)C2(C)C` (some centres unmarked) [Compound 11090], the Ki is reported as no more than 75 nM.
